In brackets after ≈: the same amount, converted by molar mass.

The values below come from PMC11100219, “Dual-function antimicrobial-antibiofilm peptide hybrid to tackle biofilm-forming Staphylococcus epidermidis” (Annals of Clinical Microbiology and Antimicrobials, 2024).

Holding throughout (format): cell-based
For data set [1], the system named is human red blood cells (hRBCs). The data set is described as follows: Hemolysis activity (hemoglobin release). Particulars: peptide concentration causing 10% hemolysis of hRBCs; 2% hRBCs in 10 mM PBS, 1 h, 37°C, OD405. The method, then: The effect of peptides on human red blood cells (hRBCs) was assessed by observing the release of hemoglobin upon treated with peptide. Briefly, the hRBCs were obtained from healthy volunteers and subsequently diluted in 10 mM PBS to a concentration of 2% hRBCs. An equal volume of 2% hRBCs and peptide at concentration of 0.98–250 µg/mL in 10 mM PBS mixtures were incubated for 1 h at 37°C. Following incubation, the suspension was centrifuged, then supernatants were collected and transferred to 96-well microplates for measurement of absorbance at OD of 405 nm (OD405). This study was performed in accordance with the Thammasat University Ethics Committee (COA No. 066/2562). Written informed consent was obtained from all volunteers.

Data set [2] deals with Escherichia coli ATCC 25922. Put plainly: Broth microdilution MIC / MBC. To be noted: MHB, 24 h, 37°C, 0.98-250 µg/mL, visible inspection. As for the experimental part: (§1) The minimal inhibitory concentrations (MICs) of peptide derivatives versus planktonic bacteria were assessed using a modification of the broth microdilution assay previously described in the National Committee for Clinical Laboratory Standards (NCCLS). In brief, bacteria at mid-logarithmic growth were collected by centrifugation at 2,500 × g for 5 min. Subsequently, the pellet was resuspended and adjusted in Mueller-Hinton Broth (MHB; BD Bacto™, USA) to an OD620 of 0.05. Fifty µL of bacterial suspensions was transferred to 96-well microplates. Later, 50 µL of peptide derivatives at 0.98–250 µg/mL in 10 mM PBS, was added to wells and incubated for 24 h at 37°C with continuous shaking at 220 rpm. […] The experiments were done in three technical replicates and repeated independently.
(§2) To determine minimal bactericidal concentrations (MBCs) of the peptides, 50 µL of supernatant from non-turbid wells was plated on TSA, and the number of colony-forming units (CFUs) was observed after 24 h of incubation at 37°C. MBC was defined as the minimum concentration of peptide at which no bacterial colony was observed on the plate.
Background: In broth dilution the organism is exposed to a series of concentrations in liquid medium.

The test system of data set [3] is Staphylococcus aureus ATCC 25923. The data set is described as follows: Broth microdilution MIC / MBC. To be noted: 24 h, 37°C. The method, then: as §1, §2

Usually MIC stands for the lowest concentration found to suppress growth. A word on the MBC: it is the lowest tested concentration that kills the bacteria rather than only halting them. A lower MBC goes with greater bactericidal potency. For `CC[C@H](C)[C@H](NC(=O)CN)C(=O)NCC(=O)N[C@@H](C)C(=O)N[C@H](C(=O)N[C@@H](CC(C)C)C(=O)N[C@@H](CCCCN)C(=O)N[C@H](C(=O)N[C@@H](CC(C)C)C(=O)N[C@H](C(=O)N[C@H](C(=O)NCC(=O)N[C@@H](CC(C)C)C(=O)N1CCC[C@H]1C(=O)N[C@@H](C)C(=O)N[C@@H](CC(C)C)C(=O)N[C@H](C(=O)N[C@@H](CO)C(=O)N[C@@H](Cc1c[nH]c2ccccc12)C(=O)N[C@H](C(=O)N[C@@H](CCCCN)C(=O)N[C@@H](CCCNC(=N)N)C(=O)N[C@@H](CCCCN)C(=O)N[C@@H](CCCNC(=N)N)C(=O)N[C@@H](CCC(N)=O)C(=O)N[C@@H](CCC(N)=O)C(N)=O)[C@@H](C)CC)[C@@H](C)CC)[C@@H](C)O)[C@@H](C)O)C(C)C)C(C)C` [Melittin, melittin, reference compound], the “MHC, minimum hemolytic concentration” value in data set [1] is given as below 0.98 µg/mL. Further, the minimum inhibitory concentration (MIC) in data set [2] was determined as 31.2 µg/mL (≈ 11 µM); in data set [3] (broth microdilution, MHB, 0.98-250 µg/mL, visible inspection), 3.91 µg/mL (≈ 1.37 µM). This compound also showed an MBC in data set [3] (plating of non-turbid wells on TSA) of 3.91 µg/mL (≈ 1.37 µM).
